Values quoted from earlier work in patent US7422793B2, “Non-toxic corrosion-protection rinses and seals based on rare earth elements” (University of Dayton, priority 2002, dated 2008).

Conditions: pH 7; cited from earlier work

Molecule | Solubility in Water [mM]
F[B-](F)(F)F.[Cs+] [Cesium tetrafluoroborate] | 500
Rubidium tetrafluoroborate | 100
F[Si-2](F)(F)(F)(F)F.[Sr+2] [Strontium hexafluorosilicate] | 110
F[Si-2](F)(F)(F)(F)F.[Cs+].[Cs+] [Cesium hexafluorosilicate] | 23
Rubidium fluorogermanate | 17
